The values below come from patent publication US11007356B2, “Ingestible device for delivery of therapeutic agent to the gastrointestinal tract” (Progenity, Inc., priority 2018, dated 2021).

The nature of series [1]: Insulin PK after SC or intra-jejunal (IJ) jet delivery in swine (Example 3). Particulars: individual animals. The format is in vivo, Yorkshire female swine.
For series [2] the following is noted: in vivo, cited from earlier work.
Series [3] is described as follows: Dosing regimen model: required bioavailability for ingestible device (Tables 16, 17). The conditions noted are these: approved dose x bioavailability of the approved route (Table 16).

Where two headings read alike, the source gives them in different places.

On to “Novolin® R: regular human insulin (NOVOLIN® R)”, for which the “Tmax of blood insulin” value in series [1] (IJ administration via jet delivery device, ~40 U) stood at 75 min; in series [1] (SC administration), 75 min.

Take abatacept: the “Bio Avail (Approved Dosing Info)” value in series [2] (sc) is 79%. Also, the “Eff Dose” value in series [3] is 98.8 mg.

In the case of interferon beta-1a, the “Bio Avail (Approved Dosing Info)” value in series [2] is listed as 40%. The “Eff Dose” value in series [3] was 0.01 mg.
